Data published in ChEMBL document CHEMBL1629653, “CMY-31 and CMY-36 cephalosporinases encoded by ColE1-like plasmids” (Antimicrob Agents Chemother, 2009).

Legend:
[1] = substrate: CC(=O)OCC1=C(C(=O)O)N2C(=O)[C@@H](NC(=O)Cc3cccs3)[C@H]2SC1; details: Salmonella enterica subsp. enterica serovar Newport; AM17274
[2] = substrate: O=C(Cc1cccs1)N[C@@H]1C(=O)N2C(C(=O)[O-])=C(C[n+]3ccccc3)CS[C@H]12; details: Salmonella enterica subsp. enterica serovar Newport; AM17274
[3] = substrate: CC(=O)OCC1=C(C(=O)O)N2C(=O)[C@@H](NC(=O)Cc3cccs3)[C@H]2SC1; details: Salmonella enterica subsp. enterica serovar Newport; AM17274; remark: listed apart in the source
[4] = substrate: CC(=O)OCC1=C(C(=O)O)N2C(=O)[C@@H](NC(=O)Cc3cccs3)[C@H]2SC1; experiment: Activity of Klebsiella pneumoniae HP205 cephalosporinase CMY-36 by spectrophotometry
How it was run: (§1)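 CMY β-lactamases purified from sonicated, ultracentrifuge-clarified extracts of E. coli DH5α clones (pB-cmy36, pB-cmy2) by Q- then S-Sepharose ion exchange (>90% pure by SDS-PAGE); steady-state hydrolysis kinetics measured spectrophotometrically, CMY-2 run in parallel.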

[5] = substrate: CC(=O)OCC1=C(C(=O)O)N2C(=O)[C@@H](NC(=O)Cc3cccs3)[C@H]2SC1; experiment: Ratio of Kcat to Km for Klebsiella pneumoniae cephalosporinase CMY-36 by spectrophotometry
How it was run: as §1

Protein | kcat/Km [1] | Km [2] | Km [3] | kcat [3] | Km [4] | kcat [4] | kcat/Km [5]
Efflux transporter (Salmonella newport), Q3S5C3 (protein) MSWIVLLIAGLLEVVWAIGLKYTHGFTRLTPSIITIAAMIVSIAMLSWAMRTLPVGTAYAVWTGIGAVGAAITGILLLGESASPARLLSLGLIVAGIIGLKLSTH | 2.94e+07 M⁻¹ s⁻¹ | 150 µM | 5.1 µM | 150 s⁻¹ | – | – | –
Class C beta-lactamase CMY-36 (Klebsiella pneumoniae), Q48435 (protein) MMKKSLCCALLLTASFSTFAAAKTEQQIADIVNRTITPLMQEQAIPGMAVAVIYQGKPYYFTWGKADIANNHPVTQQTLFELGSVSKTFNGVLGGDCIARGEIKLSDPVTKYWPELTGKQWQGIRLLHLATYTAGGLPLQIPDDVRDKAALLHFYQNWQPQWTPGAKRLYANSSIGLFGALAVKPSGMSYEEAMTRRVLQPLKLAHTWITVPENEQKDYAWGYREGKPVHVSPGQLDAEAYGVKSSVIDMARWVQANMDASHVQEKTLQQGIALAQSRYWRIGDMYQGLGWEMLNWPLKADSIINGSDSKVALAALPAVEVNPPAPAVKASWVHKTGSTGGFGSYVAFVPEKNLGIVMLANKSYPNPVRVEAAWRILEKLQ | – | – | – | – | 4.4 µM | 140 s⁻¹ | 3.18e+07 M⁻¹ s⁻¹
